## Yeast mating assay B: variants of the scFv Ab-14

From the AlphaSeq antibody data of Li et al. 2023 (doi:10.1038/s41467-023-39022-2), copy in the FLAb collection.

Antigen: PDVDLGDISGINAS, a 14-residue peptide of the SARS-CoV-2 spike HR2 region.

The variants keep the light chain, the linker and the frameworks of Ab-14 (scFv order VH, a (GGGGS)3 linker, VL).
VH: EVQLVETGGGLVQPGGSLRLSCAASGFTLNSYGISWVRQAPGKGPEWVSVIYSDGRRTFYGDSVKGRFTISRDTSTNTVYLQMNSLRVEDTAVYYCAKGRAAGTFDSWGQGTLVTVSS
VL: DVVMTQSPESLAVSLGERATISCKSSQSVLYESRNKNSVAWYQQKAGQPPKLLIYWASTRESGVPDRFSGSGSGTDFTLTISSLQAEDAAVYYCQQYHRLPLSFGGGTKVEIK

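Phage display of a naive human antibody library on the peptide gave the parent. This is the validation round: designs drawn from the data on random variants, tested in the same kind of assay. Group labels follow the data file (Ctrl: baseline library sampled from a position-specific scoring matrix, with some repeated check sequences; En: ensemble of fine-tuned language models; HC: hill climbing; Gen: genetic algorithm; Gibbs: Gibbs sampling; a sequence that several methods proposed may carry one label only). In AlphaSeq, yeast of one mating type display the scFv and yeast of the other type display the target. The frequency of each diploid, read from paired DNA barcodes, reflects how well the two displayed proteins bind. The ratio of observed to expected reads was calibrated, replicate by replicate, on BCL2-family standards whose Kd was known from biolayer interferometry. Mating was done six times.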

Variants are written as CDR1, CDR2 and CDR3 of the heavy chain (limits as in the source). Parent: GFTLNSYGIS, VIYSDGRRTFYGDSVK, GRAAGTFDS. Variants here have more than six changes. Kd is apparent (estimated from mating counts) and averaged on the log scale over replicates with a signal. Smaller is tighter. Where no diploid with the target was found in any replicate, the entry reads "nd": below detection, most likely a poor binder, though not proof of it.

For GFDLDEYGIS | VIYADGKRTAYIDSVK | GNVAGTFDL [En_Gen], the assay gave 270 pM (6 of 6 replicates; controls 0 of 18).
For GFDLNEYGIS | VIYADGRRTFYADSVK | GTNAGTFLV [En_HC], the assay gave 3.4 nM (6 of 6 replicates; controls 1 of 18).
For GFDLNEYGIS | VIYADGLRTAYADSVK | GEVAGTFDT [En_Gen], the assay gave 86 nM (1 of 6 replicates; controls 0 of 18).
For GFDLNEYGIS | VIYADGMRTAYADSVK | GNEAGTFDT [En_Gen], the assay gave nd (0 of 6 replicates; controls 0 of 18).
For GFDLNEYGIS | VIYADGVRTAYADDVK | GNTAGTFDI [En_Gen], the assay gave 110 pM (6 of 6 replicates; controls 0 of 18).
For GFTLSEYGIS | VIYADGVRVEYTDSVK | GSLGGSFLV [En_Gibbs], the assay gave nd (0 of 6 replicates; controls 0 of 18).
For GESLDSYGIS | VIYADGMRTSYDNSVK | GAWAGTFDE [En_Gibbs], the assay gave 510 nM (2 of 6 replicates; controls 1 of 18).
For GFDLNEYGIS | VIYADGMRTAYADSVK | GNNAGTFNV [En_Gen], the assay gave 1.8 nM (6 of 6 replicates; controls 0 of 18).
For GFDLNEYGIS | VIYADGRRTQYIDSVK | GETAGTFDT [En_HC], the assay gave 270 pM (6 of 6 replicates; controls 0 of 18).
For GFTLNSYMIS | VIYADGRRVAYINSVK | GSAMGTFDS [Ctrl], the assay gave 12 µM (1 of 6 replicates; controls 0 of 18).
For GQDLNEYGIS | VIYADGVRTAYAISVK | GYHGSQFDI [En_Gibbs], the assay gave nd (0 of 6 replicates; controls 0 of 18).
For GFNLNEYGIS | VIYADGRRTFYADSVK | GEEAGTFDV [En_HC], the assay gave 8.0 nM (6 of 6 replicates; controls 0 of 18).
For GFNLDEYGIS | VIYADGRRTVYTDSVK | GRYGVYIAY [En_Gibbs], the assay gave nd (0 of 6 replicates; controls 0 of 18).
For GFDLNEYGIS | VIYADGKRTAYADNVK | GQVAGTFDI [En_Gen], the assay gave 570 pM (6 of 6 replicates; controls 0 of 18).
For GFDLNEYGIS | VIYADGRRKFYADSVK | GNTAGTFDS [En_HC], the assay gave 8.9 nM (5 of 6 replicates; controls 0 of 18).
For GFDLNEYGIS | VIYADGRRTFYSDSVK | GQNAGTFDM [En_HC], the assay gave 350 pM (6 of 6 replicates; controls 1 of 18).
For GFDLNEYGIS | VIYADGVRTFYADSVK | GEAGGTFDV [En_HC], the assay gave 1.8 nM (6 of 6 replicates; controls 0 of 18).
For GFDLNEYGIS | VIYADGQRTAYADNVK | GEVAGTFDV [En_Gen], the assay gave 330 pM (6 of 6 replicates; controls 1 of 18).
For GFDLNEYGIS | VIYADGSRKAYADSVK | GNVAGTFDL [En_Gen], the assay gave 570 pM (6 of 6 replicates; controls 0 of 18).
For GFPIDEYGIS | VIYADGRRTVYSDNVK | GNYGVSIAV [En_Gibbs], the assay gave nd (0 of 6 replicates; controls 0 of 18).
For GFDLNEYGIS | VIYADGMRTSYSDSVK | GNQAGTFDV [En_Gen], the assay gave 500 pM (6 of 6 replicates; controls 0 of 18).
For GFQLNEYGIS | VIYADGKRSEYADKVK | GGINSSFSV [En_Gibbs], the assay gave nd (0 of 6 replicates; controls 0 of 18).
For GFSLDEYGIS | VIYADGMRTAYTADVK | GVKGEDVVT [En_Gibbs], the assay gave nd (0 of 6 replicates; controls 0 of 18).
For GNDLNEYGIS | VIYADGLRVFYAENVK | GQLDVVVLA [En_Gibbs], the assay gave nd (0 of 6 replicates; controls 0 of 18).
For GFDLLEYGIS | VIYADGMRVAYAKDVK | GMEGQLVVD [En_Gibbs], the assay gave nd (0 of 6 replicates; controls 0 of 18).
For GFDLNEYGIS | VIYADGRRTSYADSVK | GETAGTFDV [En_HC], the assay gave 130 pM (6 of 6 replicates; controls 0 of 18).
For GFDLNEYGIS | VIYADGRRTFYTDSVK | GNAAGTFSV [En_HC], the assay gave 580 pM (6 of 6 replicates; controls 0 of 18).
For GFDLDEYGIS | VIYADGSRTAYSDSVK | GNEAGTFDV [En_Gen], the assay gave 2.1 nM (6 of 6 replicates; controls 1 of 18).
For GFSLAEYGIS | VIYADGSRTAYADAVK | GYNGKIGDK [En_Gibbs], the assay gave nd (0 of 6 replicates; controls 0 of 18).
For GFDLNEYGIS | VIYADGRRTFYTDSVK | GTDAGTFDV [En_HC], the assay gave nd (0 of 6 replicates; controls 0 of 18).
For GFNLNEYGIS | VIYADGMRTFYADKAK | GNAGIVVEV [En_Gibbs], the assay gave nd (0 of 6 replicates; controls 0 of 18).
For GFDLDEYGIS | VIYADGQRTAYADSVK | GGNAGTFDL [En_Gen], the assay gave 370 pM (6 of 6 replicates; controls 0 of 18).
For GFDLNEYGIS | VIYADGSRTAYSDSVK | GEVAGTFDT [En_Gen], the assay gave 480 pM (6 of 6 replicates; controls 0 of 18).
For GFDLNEYGIS | VIYADGRRTAYKDSVK | GEAAGTFDV [En_HC], the assay gave 580 pM (6 of 6 replicates; controls 1 of 18).
For GFNLDEYGIS | VIYADGIRAAYKDKVK | GDDILLGWF [En_Gibbs], the assay gave nd (0 of 6 replicates; controls 1 of 18).
For GFDLDEYGIS | VIYADGVRTAYIDSVK | GNVAGTFDV [En_Gen], the assay gave 190 pM (6 of 6 replicates; controls 0 of 18).
For GFDLNEYGIS | VIYADGLRTFYTDSVK | GEIAGTFDV [En_HC], the assay gave 270 pM (6 of 6 replicates; controls 0 of 18).
For GFDLNEYGIS | VIYADGLRTAYTDSVK | GEFAGTFDS [En_HC], the assay gave 930 pM (6 of 6 replicates; controls 0 of 18).
For GFDLNEYGIS | VIYADGQRTAYSDSVK | GEVAGTFDV [En_Gen], the assay gave 490 pM (6 of 6 replicates; controls 0 of 18).
For GFDLNEYGIS | VIYADGRRTFYTDDVK | GEVAGTFDV [En_HC], the assay gave 230 pM (6 of 6 replicates; controls 0 of 18).
For GFDIDEYGIS | VIYADGRRTAYADSVK | GTNAGTFDV [En_HC], the assay gave 410 pM (6 of 6 replicates; controls 0 of 18).
For GFDLNEYGIS | VIYADGMRTAYADSVK | GNVAGTFDK [En_Gen], the assay gave 320 pM (6 of 6 replicates; controls 0 of 18).
For GFDLNEYGIS | VIYADGMRTAYVDSVK | GNQAGTFDV [En_Gen], the assay gave 5.3 nM (6 of 6 replicates; controls 1 of 18).
For GFDLNEYGIS | VIYADGRRTAYIDSVK | GEVAGTFDS [En_HC], the assay gave 190 pM (6 of 6 replicates; controls 0 of 18).
For GFDLNEYGVS | VIYADGQRTQYTDKVK | GGFSAAITF [En_Gibbs], the assay gave nd (0 of 6 replicates; controls 1 of 18).
For GFDLEEYGIS | VIYADGMRTAYADSVK | GNVAGTFDI [En_Gen], the assay gave 230 pM (6 of 6 replicates; controls 0 of 18).
For GFDLGEYGIS | VIYADGSRSAYATNVK | GGSGYKDGV [En_Gibbs], the assay gave nd (0 of 6 replicates; controls 0 of 18).
For GESLDEFGIS | VIYADGMRTAYTDKVK | GLVAATFVD [En_Gibbs], the assay gave nd (0 of 6 replicates; controls 2 of 18).
For GFDLNEYGIS | VIYADGRRTFYSDSVK | GEAAGTFVM [En_HC], the assay gave 180 nM (2 of 6 replicates; controls 0 of 18).
For GFDLNEYGIS | VIYADGMRTAYVDDVK | GNNAGTFDV [En_Gen], the assay gave 280 pM (6 of 6 replicates; controls 0 of 18).

Picked from the list: the 4 lowest averages where every replicate gave a value.

The variant GFDLNEYGIS | VIYADGVRTAYADDVK | GNTAGTFDI [En_Gen] showed 110 pM (6 of 6 replicates; controls 0 of 18).
The variant GFDLNEYGIS | VIYADGRRTSYADSVK | GETAGTFDV [En_HC] showed 130 pM (6 of 6 replicates; controls 0 of 18).
The variant GFDLDEYGIS | VIYADGVRTAYIDSVK | GNVAGTFDV [En_Gen] showed 190 pM (6 of 6 replicates; controls 0 of 18).
The variant GFDLNEYGIS | VIYADGRRTAYIDSVK | GEVAGTFDS [En_HC] showed 190 pM (6 of 6 replicates; controls 0 of 18).

The authors' rule: three or more of the six replicates give a measured affinity, fewer mean a poor binder. Background: pairings of all heavy chain designs with three empty control strains gave a value in 1% of cases (median 120 nM, 5th percentile 7.0 nM). Values in that range, when seen in few replicates, are hard to tell from nonspecific mating. Also given: how often the same scFv was detected with the empty control strains. The range of this assay differs from that of the first round, and the authors advise against merging the two. Of ten entries with the parent sequence, four were seen in most replicates (averages 2.2 nM to 240 nM), three in one and three in none, so single entries are noisy.